# Most compounds without a hit are left out; they make up all but 16% or so of the library.
# DT40 TDP1 CPT = growth inhibition of DT40 Tdp1-/-;hTDP1 cells with camptothecin (screen for TDP1 inhibitors); chicken DT40 Tdp1-/-;hTDP1 cells + 20 nM CPT, ATP luminescence, 48 h; Potency, µM (doses to about 46.2 µM), usual class: inhibitors; actives 12% (n = 420,000); also: nearly all actives have a fitted effect of over 55% in size
#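 Chicken DT40 Tdp1-/- cells stably complemented with human TDP1 were seeded at 400 cells/well in medium containing 20 nM camptothecin, exposed to pin-transferred compounds, and grown at 37 °C for at least 48 hr. Viability was read as ATP luminescence.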
# uPA surface inh = blocks generation of uPA at the cell surface | cell surface uPA generation assay, qHTS | Potency, µM (top dose mostly 38.3 µM), actives largely listed as inhibitors | actives 0.31% (n = 330,000) | AID 540303; active = well fitted inhibition curve with a large enough effect; inconclusive = small, poorly fitted or top-dose-only effect; inactive = no such curve, though single readings can be large or run the other way; tested in mouse RAW 264.7 cells; also: nearly all actives have a fitted effect of over 55% in size
# TDP1 inh = blocks human tyrosyl-DNA phosphodiesterase 1 | Q9NUW8 | recombinant TDP1, AlphaScreen DNA substrate cleavage | Potency, µM (titrated, usually from 130 µM), actives largely listed as inhibitors | actives 0.28% (n = 350,000) | AID 485290; also: nearly all actives have a fitted effect of over 40% in size
#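 Recombinant human Tdp1 (E. coli-expressed, 1 nM final) preincubated with compounds 15 min at room temperature, then 5'-biotin/3'-phosphotyrosine-FITC DNA substrate (15 nM final) added for 5 min. AlphaScreen beads (10 ug/ml final) added 10 min; cleavage lowers signal.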
# TDP1 cell noCPT = qHTS for Inhibitors of human tyrosyl-DNA phosphodiesterase 1 (TDP1): qHTS in cells in absence of CPT; DT40 Tdp1-/- hTDP1 cells, no CPT, ATP luminescence, 48 h; Potency, µM (highest dose often 46.2 µM), hits mostly inhibitors; actives 15% (n = 420,000); also: nearly all actives have a fitted effect of over 55% in size
#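 Growth kinetics read by CellTiter-Glo luminescence after ≥48 hr at 37 °C. Cells: DT40 Tdp1-/- stably carrying human TDP1, 400 per well, compound exposure in the absence of CPT (DMSO vehicle).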
# miR-21 reporter = miR-21 reporter, rising signal | HeLa miR-21 FLuc reporter, luciferase, 48 h | Potency, µM (doses to about 38.3 µM) | 340,000 tested, under 10 active | AID 2288; active = well fitted rising curve with a large enough effect; inconclusive = small, poorly fitted or top-dose-only effect; inactive = no such curve, though single readings can be large or run the other way;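 note: miR-21 action dims this reporter so a rising signal means less miR-21 action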
#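 HeLa cells endogenously expressing miR-21, stably carrying CMV-driven firefly luciferase with a downstream miR-21 binding site, 2000 cells/well. Titrations up to approximately 40 uM, 48 hours; luciferase luminescence read.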
# Numbers stand for hits; . = inactive; ? = inconclusive; / = no result. Unless noted, calls follow the shape of the dose curve; as a rule, active = well fitted curve in the direction sought with a large enough effect; inconclusive = small, poorly fitted or top-dose-only effect, or another doubt; inactive = no such curve, though single readings can be large; an effect the other way counts as inactive or inconclusive.
SMILES,DT40 TDP1 CPT,uPA surface inh,TDP1 inh,TDP1 cell noCPT,miR-21 reporter
CCCN1CCC(=O)N([C@H](COc2ccccc2)Cc2ccccc2)CC1,26µM,.,/,?,.
O=C1CCN(Cc2ccccc2)CCN1[C@H](COc1ccccc1)Cc1ccccc1,21µM,.,/,21µM,.
Cc1ccc(Cl)cc1NC(=O)CCS(=O)(=O)c1ccc2c(c1)n(C)c(=O)c(=O)n2C,.,/,.,.,.
Cc1ccc(C)c(NC(=O)C(C)CC2COCCO2)c1 (stereo unspecified),.,.,.,.,.
O=C(CSc1nc2ccccc2n1CC(=O)N1CCCC1)Nc1nccs1,.,/,.,.,.
CC1=C(C)C(c2ccccc2)NC(=S)N1 (stereo unspecified),?,.,.,?,.
NCc1cn(Cc2ccccc2)nc1-c1ccccc1,11µM,/,.,?,/
COc1cccc(-c2nn(Cc3ccccc3)cc2CO)c1,.,.,.,.,.
O=C(NCc1cccnc1)c1ccc(S(=O)(=O)Nc2ccccc2)cc1,.,.,.,.,/
O=C(NNC(=O)c1ccccc1O)c1ccc(NS(=O)(=O)c2ccc(F)c(F)c2)cc1,?,.,/,?,/
Cc1ccc(NS(=O)(=O)c2ccc(C(=O)NNC(=O)c3ccccc3O)cc2)cc1,?,.,/,23µM,/
Cc1ccc(S(=O)(=O)Nc2ccc(C(=O)Nc3ccncc3)cc2)cc1,15µM,.,.,?,.
Cc1ccc(NS(=O)(=O)c2ccc(C(=O)NCc3cccnc3)cc2)cc1,?,.,.,15µM,.
CC(=O)N1CCc2c(sc(NC(=O)CSc3ccc(F)cc3)c2-c2nc3ccccc3s2)C1,12µM,/,.,9.2µM,.
CN1CCc2c(sc(NC(=O)CSc3ccc(F)cc3)c2-c2nc3ccccc3s2)C1,?,/,.,16µM,.
CC(=O)Nc1sc2c(c1-c1nc3ccccc3s1)CCN(C(C)C)C2,2.3µM,?,/,2.6µM,?
COC(=O)c1c(NC(=O)c2ccco2)sc2c1CCN(C(C)C)C2,?,.,.,.,.
CCN1CCc2c(sc(NC(=O)CSc3ccccc3)c2-c2nc3ccccc3s2)C1,?,/,.,?,.
COc1cc2c(=O)[nH]c3cc([N+](=O)[O-])ccc3c2cc1[N+](=O)[O-],8.2µM,/,/,6.5µM,/
CCOc1ccccc1NC(=O)NC1CC2CCCC(C1)N2Cc1nnnn1CCc1ccccc1 (stereo unspecified),.,.,.,?,.
Cc1ccc(NC(=O)CSc2nc3n[nH]c(C)c3c(=N)n2-c2ccccc2C)cc1C,.,/,.,?,.
CCC(Sc1nc2n[nH]c(C)c2c(=N)n1-c1cccc(Cl)c1)C(=O)NCCOC (stereo unspecified),23µM,.,.,13µM,.
CCC(Sc1nc2n[nH]c(C)c2c(=N)n1-c1ccc(C)c(Cl)c1)C(=O)N1CCOCC1 (stereo unspecified),?,.,.,?,.
Cc1cccc(NC(=O)CSc2nc3n[nH]c(C)c3c(=N)n2-c2cccc(Cl)c2)c1,18µM,/,.,15µM,.
CCC(C)NC(=O)CSc1nc2n[nH]c(C)c2c(=N)n1-c1cc(Cl)ccc1C (stereo unspecified),?,/,.,16µM,.
SMILES,DT40 TDP1 CPT,uPA surface inh,TDP1 inh,TDP1 cell noCPT,miR-21 reporter
Cc1ccc(NC(=O)CSc2nc3n[nH]c(C)c3c(=N)n2-c2cccc(C)c2)cc1,5.8µM,/,.,3.3µM,.
CC(C)C[C@H]1CN([C@@H](CC(C)C)CN2CCC[C@@H]2CN2C(=S)NC[C@@H]2Cc2ccc(O)cc2)C(=S)N1CC1CCCCC1,?,/,/,16µM,/
CC(C)C[C@@H](CN1CCCC1CN1C(=S)NC[C@@H]1Cc1ccccc1)N1C[C@H](Cc2ccc(O)cc2)N(CC2CCCCC2)C1=S (stereo partly specified),?,/,/,18µM,/
CC(C)C[C@H]1CNC(=S)N1CC1CCCN1C[C@H](CC(C)C)N1C[C@H](Cc2ccccc2)N(CC2CCCCCC2)C1=S (stereo partly specified),?,.,/,23µM,/
CC(C)C[C@@H](CN1CCC[C@@H]1CN1C(=S)NC[C@@H]1Cc1ccc(O)cc1)N1C[C@H](Cc2ccc(O)cc2)N(CC2CCCCC2)C1=S,18µM,/,/,16µM,/
CC(=O)N1CCc2c(sc3nc(SCC(N)=O)n(-c4ccc(F)c(Cl)c4)c(=O)c23)C1,.,/,.,.,.

# Bioassay records (PubChem BioAssay)
